Fluorescence (KMESF) data for 25 molecules are collected here from PubChem BioAssay AID1776 (NMMLSC, 2009).

The structures appear in SMILES notation. The list shows a part of the results, in another mix than the full data. Active and inactive are the calls of the source. Rule as the data show it: active = fluorescence above about 89; inactive = the rest.

The nature of this assay: green autofluorescence of compounds with GSH beads – biophysical, 488/530 nm, flow cytometry, artefact control, profiling panel (AID 1776).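 Also: glutathione beads carrying GST-tagged Bcl family fusion proteins plus one bare bead set; values are compound well signal with DMSO vehicle wells as background.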 To be noted: compound fluorescence 488/530 nm, at 10 µM, active compounds read high.
In the case of `COc1ccc(NC2CCN(CCc3ccccc3)CC2)c(OC)c1`, the fluorescence (KMESF) is inactive: 23.

With `O=C(NCC1(N2CCOCC2)CCCCC1)c1cc2ccccc2o1`, the fluorescence (KMESF) was inactive: 14.

As to `CCOC(=O)N1CCC(Nc2ccc(OC)cc2)CC1`, the fluorescence (KMESF) is inactive: 17. The figure for `O=C(OC1CN2CCC1CC2)C1c2ccccc2Oc2ccccc21` (stereo not given) is inactive: 11; for `COc1ccc(C(=O)NCC2(N3CCCCC3)CCCCC2)c(OC)c1OC` it is inactive: 9. In the case of `CN(C)c1cccc(C(=O)NCC2(N3CCCCC3)CCCCC2)c1`, the fluorescence (KMESF) is inactive: 10. On to `COc1ccc(CN(CCCl)CCCl)cc1Cl`, for which the fluorescence (KMESF) is inactive: 12.

As to `CC(C)c1ccc(NC2CCN(C(=O)OC(C)(C)C)CC2)cc1`, the fluorescence (KMESF) was inactive: 11. The figure for `COc1ccc(NC2CCN(C(=O)OC(C)(C)C)CC2)cc1` is inactive: 15. Turning to `CN1CCN(CCOC(=O)C(O)(c2ccccc2)c2ccccc2)CC1`, the fluorescence (KMESF) was inactive: 8. Turning to `O=C(NCC1(N2CCOCC2)CCCCC1)c1cc(=O)[nH]c2ccccc12`, the fluorescence (KMESF) is inactive: 22. On to `O=C(NCC1(N2CCCCC2)CCCCC1)c1cccc([N+](=O)[O-])c1`, for which the fluorescence (KMESF) was inactive: 10.

As for `N#CC1(Nc2ccccc2)CCN(CCc2ccccc2)CC1`, the fluorescence (KMESF) was inactive: 22.

As for `c1ccc(CN2CCC(Nc3ccccc3)CC2)cc1`, the fluorescence (KMESF) was inactive: 5.

For the molecule `N#Cc1ccc(C(=O)NCC2(N3CCCCC3)CCCCC2)cc1`, the fluorescence (KMESF) is inactive: 16. As to `N/C(=N\O)c1c(N)no[n+]1[O-]`, the fluorescence (KMESF) is inactive: 68. The result for `O=C(OC1CN2CCC1CC2)C1c2ccccc2C=Cc2ccccc21` (stereo not given) reads inactive: 7; that for `COc1ccc(C(=O)NCC2(N3CCOCC3)CCCCC2)cc1OC`, inactive: 12; that for `CCC(CO)(C(=O)OC1CN2CCC1CC2)c1ccccc1` (stereo not given), inactive: 24. In the case of `COc1cc(OC)cc(C(=O)NCC2(N3CCOCC3)CCCCC2)c1`, the fluorescence (KMESF) is inactive: 12.

Take `CCOc1ncccc1C(=O)NCC1(N2CCOCC2)CCCCC1`: the fluorescence (KMESF) was inactive: 57. `CC(C)(C)OC(=O)N1CCC(Nc2ccccc2)CC1`: the fluorescence (KMESF) was inactive: 14. For the molecule `CCN1CCC(Nc2cccc(F)c2)CC1`, the fluorescence (KMESF) is inactive: 19. On to `CN(C)c1ccc(C(=O)NCC2(N3CCCCC3)CCCCC2)cc1`, for which the fluorescence (KMESF) is inactive: 10. Regarding `Fc1ccccc1NC1CCN(Cc2ccccc2)CC1`, the fluorescence (KMESF) was inactive: 12.
